{"source": "patent EP0221719A2", "about": "“Novel cephalosporin derivatives, processes for their preparation and pharmaceutical compositions containing them” (BIOGAL GYOGYSZERGYAR, priority 1985, dated 1987)", "test_system": "Salmonella typhi murium and Proteus vulgaris", "assay": "In vivo effectivity in artificially infected mice (protection test)", "conditions": "sc, 72 h, read-out: dose achieving a fully complete therapeutic effect"}
{"smiles": "CCN1CCN(C(=O)N[C@@H](C(=O)N[C@@H]2C(=O)N3C(C(=O)O)=C(CSc4nnnn4C)CS[C@H]23)c2ccc(O)cc2)C(=O)C1=O", "note": "[Cefoperazone, 7-[D-(-)-α-(4-ethyl-2,3-dioxo-1-piperazinecarboxamido)-α-(4-hydroxyphenyl)-acetamido]-3-[[(1-methyl-1H-tetranol-5-yl)thio]methyl]-ceph-3-em-4-carboxylic acid, reference compound]", "values": [{"measurement": "ED100", "result": 25, "unit": "mg/kg"}]}
